Source: PMC9667534, “Insertion of Nanoluc into the Extracellular Loops as a Complementary Method To Establish BRET-Based Binding Assays for GPCRs” (ACS Pharmacology & Translational Science, 2022)

Experiments:
Nluc-M1R(Nterm) = Nluc-M1R(Nterm) (Homo sapiens, UniProt P11229); test: BRET saturation binding at intact HEK293T cells; settings: mean ± SEM
Nluc-M1R(G176) = Nluc-M1R(G176) (Homo sapiens, UniProt P11229); test: BRET saturation binding at intact HEK293T cells; settings: mean ± SEM

## Cc1cc(C=Cc2cc3c4c(c2)CCCN4CCC3)cc(C)[n+]1CCNC(=O)CCc1cn(CCCCC2CCN(CC(=O)N3c4ccccc4NC(=O)c4ccccc43)CC2)cn1
Nluc-M1R(Nterm)
  pKd (BRET): 8.04 ± 0.04
Nluc-M1R(G176)
  pKd (BRET): 8.60 ± 0.06
